In PubChem BioAssay AID677 (Vanderbilt High Throughput Screening Facility, 2007):
The entries are a selection whose mix differs from that of the whole data set. Calls of active or inactive are those of the source.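 The calls were made as follows: active = calcium response below the same-plate mean of wells given acetylcholine alone at its 80%-effect dose, minus 3 SD; inactive = the rest.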

Sequences of proteins named here, by UniProt entry; tags and fusion partners are left off. A change or cut given only in a name is not applied to a line headed by its entry.
UniProt P08482: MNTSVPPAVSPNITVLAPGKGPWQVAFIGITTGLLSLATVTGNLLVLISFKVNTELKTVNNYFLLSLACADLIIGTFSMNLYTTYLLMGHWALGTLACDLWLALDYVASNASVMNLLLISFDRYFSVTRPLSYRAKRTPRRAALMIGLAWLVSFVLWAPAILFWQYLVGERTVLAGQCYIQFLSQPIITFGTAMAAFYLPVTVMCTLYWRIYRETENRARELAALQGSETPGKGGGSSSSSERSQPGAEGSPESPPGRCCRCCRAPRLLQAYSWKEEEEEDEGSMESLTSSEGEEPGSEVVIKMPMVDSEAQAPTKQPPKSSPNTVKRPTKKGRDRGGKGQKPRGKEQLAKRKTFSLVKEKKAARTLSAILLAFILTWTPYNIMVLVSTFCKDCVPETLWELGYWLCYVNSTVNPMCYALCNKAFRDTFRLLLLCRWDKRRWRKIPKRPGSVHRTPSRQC

Molecular target: Muscarinic acetylcholine receptor M1 (Rattus norvegicus) (UniProt P08482)
Experiment: blockers of ACh-evoked M1 calcium signal – CHO cells, Fluo-4 calcium, duplicate, confirmation (AID 677);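 also: raw fluorescence intensity difference in arbitrary instrument units and not normalized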
Conditions: ACh EC80 antagonism, at 10 µM, stronger effect = lower value

Row | Compound | calcium response (max-min fluorescence)
1 | CN1CCC(=C2c3ccccc3CC(=O)c3sccc32)CC1 | active: 18.1
2 | Cc1ccccc1C(OCCN(C)C)c1ccccc1 (configuration not stated) | active: 34.7
3 | CNCCCC12CCC(c3ccccc31)c1ccccc12 | active: 49.5
4 | CN(C)CCCN1c2ccccc2CCc2ccc(Cl)cc21 | active: 15.7
5 | COc1cc2nc(N3CCN(C(=O)C4CCCO4)CC3)nc(N)c2cc1OC (configuration not stated) | inactive: 625
6 | CCOC(=O)N1CCC(=C2c3ccc(Cl)cc3CCc3cccnc32)CC1 | active: 443
7 | COc1ccc(CCN2CCC(Nc3nc4ccccc4n3Cc3ccc(F)cc3)CC2)cc1 | active: 134
